From patent US9162991B2 (University of Ottawa, priority 2007, dated 2015)

assay: Solubility in the solvent mixture used for the enzymatic assay; settings: 5% DMF/H2O solvent mixture; compared with benzotriazolyl amide inhibitors

Row | SMILES | solubility (relative)
1 | O=C(/C=C/c1ccc([N+](=O)[O-])cc1)c1cccnc1 [Compound 30a, (E)-3-(4-nitrophenyl)-1-(pyridin-3-yl)prop-2-en-1-one] | relatively more soluble
2 | Nc1ccc(/C=C/C(=O)c2cccnc2)cc1 [Compound 30r, (E)-3-(4-aminophenyl)-1-(pyridin-3-yl)prop-2-en-1-one] | relatively more soluble
3 | CC(=O)Nc1ccc(/C=C/C(=O)c2cccnc2)cc1 [Compound 30t, (E)-3-(4-acetylaminophenyl)-1-(pyridin-3-yl)prop-2-en-1-one] | relatively more soluble
